Earlier results, collected in publication PMC7430049 (Journal of medicinal chemistry, 2019).

Molecular target: T1, G9a (Homo sapiens, UniProt Q96KQ7)
T1 sequence (Q96KQ7 913-1193 limits assumed): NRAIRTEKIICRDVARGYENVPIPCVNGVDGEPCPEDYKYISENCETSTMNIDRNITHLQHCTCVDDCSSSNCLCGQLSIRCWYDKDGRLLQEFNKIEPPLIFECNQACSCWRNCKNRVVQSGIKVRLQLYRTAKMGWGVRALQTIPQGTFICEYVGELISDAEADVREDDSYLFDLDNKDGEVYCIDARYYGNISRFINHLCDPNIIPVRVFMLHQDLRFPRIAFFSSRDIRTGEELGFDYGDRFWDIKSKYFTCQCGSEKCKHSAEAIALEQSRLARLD
Details: read-out: G9a IC50 (ECSD assay); ECSD assays; cited from earlier work

In the case of `COc1cc2c(NC3CCN(C)CC3)nc(N3CCCN(C)CC3)nc2cc1OCCCN(C)C` [compound 4], the IC50 is listed as 43 nM.
